Measurements from publication PMC8958505, “Discovery of Potential Neuroprotective Agents against Paclitaxel-Induced Peripheral Neuropathy” (Journal of Medicinal Chemistry, 2022).
Counter-ions that a name gives are not always drawn.

Columns and labels:
[1] = target: Platelet Activating Factor (PAF) (Homo sapiens, UniProt P25105); test: LeadProfilingScreen: Platelet Activating Factor (PAF); format: binding
Adrenergic α1A = Adrenergic α1A (Homo sapiens, UniProt P35348); test: LeadProfilingScreen: Adrenergic α1A; format: binding
Neuropeptide Y Y1 = Neuropeptide Y Y1 (Homo sapiens, UniProt P25929); test: LeadProfilingScreen: Neuropeptide Y Y1; format: binding
Endothelin ETA = Endothelin ETA (Homo sapiens, UniProt P25101); test: LeadProfilingScreen: Endothelin ETA; format: binding
[2] = Pharmacokinetics after intravenous injection; format: in vivo; conditions: male, mouse, plasma, 5 mg/kg IV, ICR mice, mean ± SD (n = 3)
Experimental: Male ICR mice weighed (29–33 g) were obtained from BioLASCO (Taiwan Co., Ltd., Ilan, Taiwan). The animal studies were performed according to NHRI institutional animal care and committee-approved procedures. Food and water were available ad libitum throughout the experiment. A single 5.0 mg/kg dose of CN016 was dissolved in normal saline and was separately administered to mice intravenously. The groups consisted of three mice for each time point. At times 0.03, 0.08, 0.25, 0.5, 1, 2, 4, 6, 8, 16, and 24 h after dosing, blood was collected from groups of three mice at each time point by cardiac puncture. Plasma was separated from blood and stored in a freezer (−80 °C) before LC/MS/MS analysis. In addition, pharmacokinetic analysis of CN016 following intraperitoneal administration (IP, 5 mg/kg) is provided in Figure S2 (Supporting Information).

GABAB1A = GABAB1A (Homo sapiens, UniProt Q9UBS5); test: LeadProfilingScreen: GABAB1A; format: binding
Adrenergic α2A = Adrenergic α2A (Homo sapiens, UniProt P08913); test: LeadProfilingScreen: Adrenergic α2A; format: binding
[3] = system: Calcium Channel L-Type, Benzothiazepine; test: LeadProfilingScreen: Calcium Channel L-Type, Benzothiazepine; format: binding, rat; conditions: 10 μM
Rolipram = test: LeadProfilingScreen: Rolipram; format: binding, rat; conditions: 10 μM
[4] = target: Leukotriene, Cysteinyl CysLT1 (Homo sapiens, UniProt Q9Y271); test: LeadProfilingScreen: Leukotriene, Cysteinyl CysLT1; format: binding
Histamine H3 = Histamine H3 (Homo sapiens, UniProt Q9Y5N1); test: LeadProfilingScreen: Histamine H3; format: binding
Histamine H2 = Histamine H2 (Homo sapiens, UniProt P25021); test: LeadProfilingScreen: Histamine H2; format: binding
Calcium Channel N-Type = Calcium Channel N-Type (Rattus norvegicus, UniProt Q02294); test: LeadProfilingScreen: Calcium Channel N-Type; format: binding
Muscarinic M2 = Muscarinic M2 (Homo sapiens, UniProt P08172); test: LeadProfilingScreen: Muscarinic M2; format: binding
mice = test: Hemodynamic monitoring (systolic pressure, heart rate) and body weight; format: in vivo, mouse
Experimental: The baseline of every neurological behavior test was measured in 6-week-old C57BL/6J female mice prior to treatment. […] Three behavioral tests were performed on the same groups of animals once per week and no more than two behavioral tests on the same day. The first behavioral experiment was performed on the next day after the last course of treatment. Mechanical hyperalgesia was evaluated by using von Frey filament (#2390, IITC Inc., USA), thermal sensitivity was determined by the tail immersion assay (water temperature: 48–49 °C), and motor coordination was assessed by rotarod (#7750, Ugo Basile Biological Research Apparatus, Italy). After the first drug implantation, the body weight was recorded every 6 days throughout the entire experiment.
Noninvasive automatized tail-cuff system (Visitech Systems, Apex, NC, USA) was used to measure the systolic pressure and the heart rate of conscious mice. All mice were placed in a constant temperature platform at least three times to adapt the system prior to hemodynamic measurement. The root of the tail was mounted on the occlusion and sensor cuff after the mouse was placed in a constant temperature platform. Each mouse was measured for at least 15 repetitions to obtain the mean of systolic pressure and heart rate. The hemodynamic change of each mouse was measured at five different time points.

Sodium Channel, Site 2 = test: LeadProfilingScreen: Sodium Channel, Site 2; format: binding, rat; conditions: 10 μM
Muscarinic M3 = Muscarinic M3 (Homo sapiens, UniProt P20309); test: LeadProfilingScreen: Muscarinic M3; format: binding
Adenosine A2A = Adenosine A2A (Homo sapiens, UniProt P29274); test: LeadProfilingScreen: Adenosine A2A; format: binding
hERG = hERG (Homo sapiens, UniProt Q12809); test: LeadProfilingScreen: Potassium Channel hERG; format: binding
sciatic nerve fibers = test: Ultrastructure evaluation of the sciatic nerve (TEM); format: in vivo, mouse
From the text: Sciatic nerves were isolated from mice after drug treatment and behavioral tests to examine the ultrastructure of nerve fibers. […] To evaluate the integrity of myelin, we calculated the G-ratio (axon perimeter/myelin perimeter) in different treatment groups. Because the symptoms of PIPN mostly manifest with sensory impairment,[28] we roughly classified nerve fibers into larger fibers (diameter > 5 μm) and small fibers (diameter < 5 μm) depending on the type of sensory information conveyed.[29] Large fibers with greater than 5 μm diameter carry information related to proprioception, touch, and pressure. In contrast, small fibers with less than 5 μm diameter carry information related to temperature and pain.
Sciatic nerve samples from mice from each treatment group were isolated after the last time point of mouse behavioral tests. Fixation of sciatic nerves with 4% glutaraldehyde and post fixation with 1% osmium tetroxide solution at 4 °C were performed. […] Transmission electron microscopy (H7650, Hitachi) was used to observe the ultrastructure in the cross section of the sciatic nerves.

Bradykinin B2 = Bradykinin B2 (Homo sapiens, UniProt P30411); test: LeadProfilingScreen: Bradykinin B2; format: binding
Dopamine D1 = Dopamine D1 (Homo sapiens, UniProt P21728); test: LeadProfilingScreen: Dopamine D1; format: binding
[5] = CN016 (5, 10 or 20 mg/kg) and paclitaxel (4.5 mg/kg)

O=P(O)(O)CCN1CCC(Nc2cc(N3CCOCC3)nc(NCc3cn(CCCO)nn3)n2)CC1 [CN016, {2-[4-(2-{[1-(3-Hydroxy-propyl)-1H-[1,2,3]triazol-4-ylmethyl]-amino}-6-morpholin-4-yl-pyrimidin-4-ylamino)-piperidin-1-yl]-ethyl}-phosphonic Acid Hydrobromide Salt]
inhibition at 10 µM [1]: -6%
inhibition at 10 µM (Adrenergic α1A): -9%
inhibition at 10 µM (Neuropeptide Y Y1): -4%
inhibition at 10 µM (Endothelin ETA): 15%
AUC(0-t) at 24 h [2]: 6980 ± 1850 ng·h/mL
clearance at 24 h [2]: 12.8 ± 2.9 mL/min/kg
half-life at 24 h [2]: 12.8 ± 3.4 h
Vd at 24 h ([2]; read-out: Vss): 0.8 ± 0.5 L/kg
inhibition at 10 µM (GABAB1A): 14%
inhibition at 10 µM (Adrenergic α2A): -4%
Inhibition (%), Calcium Channel L-Type, Benzothiazepine [3]: -13%
Inhibition (%), Rolipram (Rolipram): 6%
inhibition at 10 µM [4]: -8%
inhibition at 10 µM (Histamine H3): 2%
inhibition at 10 µM (Histamine H2): 0%
inhibition at 10 µM (Calcium Channel N-Type): 1%
inhibition at 10 µM (Muscarinic M2): -1%
harmful effects, including heart rhythm, systolic blood pressure, and weight change (mice; 20 mg/kg): no harmful effects
heart rhythm variability (mice; [5]): did not cause
systolic blood pressure fluctuations (mice; [5]): did not cause
weight change (mice; [5]): did not cause
Inhibition (%), Sodium Channel, Site 2 (Sodium Channel, Site 2): -1%
inhibition at 10 µM (Muscarinic M3): 0%
inhibition at 10 µM (Adenosine A2A): 5%
inhibition at 10 µM (hERG): -3%
myelinated fiber density of sciatic nerve (restoration of fiber loss) (sciatic nerve fibers; dose-dependent, particularly at 20 mg/kg): significantly restored
integrity of large fibers (diameter > 5 μm) of sciatic nerve (sciatic nerve fibers; paclitaxel with pretreated CN016 5, 10 and 20 mg/kg): did not affect the integrity of large fibers
G-ratio in small fibers (diameter < 5 μm) of sciatic nerve (sciatic nerve fibers; pretreated, particularly at 10 or 20 mg/kg, paclitaxel-treated mice): could rescue the observed axonal damage
proportion of atypical mitochondria in sciatic nerve (sciatic nerve fibers; pretreatment, paclitaxel-treated mice): significantly decreased
inhibition at 10 µM (Bradykinin B2): -4%
inhibition at 10 µM (Dopamine D1): -2%
